Measured values taken from patent US7825146B2, “Sulfonamide derivative having isoxazole ring” (Shionogi & Co., Ltd., priority 2003, dated 2010).

Sequences of proteins named here, by UniProt entry; tags and fusion partners are left off. Residues count along the entry.
UniProt P39900, 100-263 limits assumed: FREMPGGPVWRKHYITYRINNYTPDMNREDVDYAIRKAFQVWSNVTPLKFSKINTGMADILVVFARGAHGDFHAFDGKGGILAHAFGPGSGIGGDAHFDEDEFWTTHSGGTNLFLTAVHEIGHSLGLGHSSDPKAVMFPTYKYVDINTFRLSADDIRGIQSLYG
UniProt P22894, 99-262 limits assumed: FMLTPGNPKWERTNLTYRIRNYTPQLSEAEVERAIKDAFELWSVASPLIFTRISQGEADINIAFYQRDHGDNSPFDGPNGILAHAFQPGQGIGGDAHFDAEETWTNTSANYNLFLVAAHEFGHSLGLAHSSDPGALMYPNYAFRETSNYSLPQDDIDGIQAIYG

Tests used:
MMP-12 = MMP-12 (Homo sapiens, UniProt P39900); test: Assay for inhibitory activities on MMPs (fluorogenic MOCAc peptide substrate): MMP-12; settings: read-out: MMP-12 (μM) inhibitory activity (IC50); catalytic domain 100Phe-263Gly
Experimental: In regard to MMP-12, catalytic domain(^100Phe˜^263Gly) was amplified with RT-PCR from Human Placenta Total RNA. This was cloned in Escherichia. coli expression vector pTrc99AHE inserted with His-tag sequence and enterokinase digestion-site, induced and expressed by IPTG (Isopropyl-β-D-thiogalactopyranoside) and expressed in a insoluble fraction. Isolation of MMP-12 from an insoluble fraction was carried out by dissolving in modifier (6M urea) by a usual method and purification with metal chelate chromatography (Ni Chelateing Sepharose). And then removing modifier (6M urea) with dialysis and refolding of the enzyme spontaneously gave activated MMP-12.
(§1) The enzymatic activity on MMPs was analyzed by the method described in “C. […] The measurement of the inhibitory activities (IC50) was carried out by the following four methods; • (A) Reaction with substrate, enzyme (MMPs) and inhibitor • (B) Reaction with substrate and inhibitor, without enzyme • (C) Reaction with substrate and enzyme (MMPs), without inhibitor • (D) Reaction with substrate only IC50 values were calculated by using the following formula and each fluorescence values of above four methods (A to D). […]
(§2) The value of inhibitory activity against MMP-2, MMP-8, MMP-9, MMP-12, and MMP-13 measured by above mentioned methods are shown in Table 36, 37, 38, 39, and 40 respectively.

MMP-13 = MMP-13 (Homo sapiens, UniProt P45452); test: Assay for inhibitory activities on MMPs (fluorogenic MOCAc peptide substrate): MMP-13; settings: read-out: MMP-13 (μM) inhibitory activity (IC50), Table 40
Experimental: In regard to MMP-13, mRNA was prepared from carcinoma cell SW1353 derived from human cartilage stimulate by IL-1, TNF and catalytic domain (^104Tyr˜^267Gly) was amplified with RT-PCR. This was cloned in Escherichia. coli expression vector pTrc99AHE inserted with His-tag sequence and enterokinase digestion-site, induced and expressed by IPTG (Isopropyl-β-D-thiogalactopyranoside) and expressed in a insoluble fraction. Isolation of MMP-13 from an insoluble fraction was carried out by dissolving in modifier (6M urea) by a usual method and purification with metal chelate chromatography (Ni Chelateing Sepharose). […]
as §1, §2

MMP-8 = MMP-8 (Homo sapiens, UniProt P22894); test: Assay for inhibitory activities on MMPs (fluorogenic MOCAc peptide substrate): MMP-8; settings: read-out: MMP-8 (μM) inhibitory activity (IC50); catalytic domain 99Phe-262Gly
Text: In regard to MMP-8, catalytic domain (^99Phe˜^262Gly) was amplified with PCR using commercial available Human Bone Marrow cDNA. This was cloned in Escherichia. coli expression vector pTrc99AHE inserted with His-tag sequence and enterokinase digestion-site, induced and expressed by IPTG (Isdpropyl-β-D-thiogalactopyranoside) and expressed in a insoluble fraction (Thau F. Ho, M. Walid Qoronfleh, Robert C. Wahl, Trica A. Pulvino, Karen J. Vavra, Joe Falvo, Tracey M. Banks, Patricia G. Brake and Richard B. Ciccarelli: Gene expression, purification and characterization of recombinant human neutrophil collagenase. Gene 146, (1994) 297-301, Prepared by the a improved method of this material). […]
as §1, §2

An IC50 (MMP-12) of 0.000529 µM and an IC50 (MMP-13) of 0.000828 µM were found for `COc1ccc(-c2cc(-c3ccc(S(=O)(=O)N[C@H](Cc4c[nH]c5ccccc45)C(=O)O)cc3)on2)cc1` in this work.

An IC50 (MMP-8) of 0.00413 µM was found for `Cc1ccc(-c2cc(-c3ccc(S(=O)(=O)N[C@H](C(=O)O)C(C)C)s3)on2)s1` in this work.

An IC50 (MMP-12) of 0.000259 µM and an IC50 (MMP-13) of 0.000796 µM were found for `CC(C)[C@H](NS(=O)(=O)c1ccc(-c2cc(-c3ccc(OC(F)(F)F)cc3)no2)cc1)C(=O)O` in this work.
